Source: publication PMC12391994, “Synthesis of a fac-Tricarbonylrhenium(I) Complex with Pyrithione, Its Physicochemical Characterization, and Assessment of Biological Effects” (ACS Omega, 2025)

Assays:
MCF-10A neoT cells [1] = assay: Intracellular DQ-collagen IV degradation (flow cytometry); type: cell-based, human; conditions: 5 μM
MCF-10A neoT cells [2] = assay: Extracellular DQ-collagen IV degradation (spectrofluorimetry); type: cell-based, human; conditions: 5 μM

For `N#Cc1ccccc1.[C-]#[O+].[C-]#[O+].[C-]#[O+].[O-]n1ccccc1=S.[Re+]` [complex 4, fac-[Re(CO)3(pth)(benzonitrile)]], the “reduction of intracellular DQ-collagen IV degradation” value (MCF-10A neoT cells [1]) was 83.3 ± 1.36% and the “reduction of extracellular DQ-collagen IV degradation” value (MCF-10A neoT cells [2]) was 41.4 ± 5.18%.
